Data set [1] has as its system Down's syndrome brain. Kind of data set: [^14 C]Chrysamine G binding in Down's syndrome brain homogenates. On the set-up: species or system human. To be noted: two patients, ages 23 and 51.
The conditions of data set [2]: mouse, in vivo, iv.
Data set [3] addresses T1, Aβ(10-43) (Homo sapiens, UniProt P05067). The experiment in a line: Inhibition of [^14 C]Chrysamine G binding to Aβ(10-43). To be noted: Congo red or the series.
Data set [4] relates to AD brain. Kind of data set: Total [^14 C]Chrysamine G binding in AD brain homogenates.
The target of data set [5] is T1, Aβ(10-43).
A short description of data set [6]: Tissue levels and metabolism of [^14 C]Chrysamine G in mice. As to conditions: 15 min after i.v. injection.
For data set [7], the system named is control brain. Kind of data set: Total [^14 C]Chrysamine G binding in control brain homogenates.

The chains behind the UniProt entries cited, without tags or fusion partners. Residues count along the entry.
UniProt P05067, 681-714: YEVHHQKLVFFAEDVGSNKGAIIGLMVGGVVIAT

Like-named read-outs stand apart in the source and are kept apart here.

Consider `O=C(O)c1cc(N=Nc2ccc(-c3ccc(N=Nc4ccc(O)c(C(=O)O)c4)cc3)cc2)ccc1O` [Chrysamine G, 4,4'-bis(3-carboxy-4-hydroxyphenylazo)-biphenyl], for which the “binding in Down's syndrome brain relative to control” value in data set [1] is reported as “above the control range”. Moreover, the brain/blood ratio result in data set [2] (15 min) is “over 10:1”; in data set [2] (35 min), ~20:1. Also, the “potency/affinity relative to another compound” value in data set [3] is given as “several fold greater than the affinity of Congo red”. In addition, the “total binding as ratio to cerebellum (CBR), Head of Caudate” value is given as 1.76 ± .31 CBR in data set [4] (n = 7, ± SEM, p < 0.04) and 0.95 ± .04 CBR in data set [7] (n = 4, ± SEM). Further, the “total binding as ratio to cerebellum (CBR), Frontal Pole” value in data set [4] (n = 10, ± SEM, p < 0.004) is 1.87 ± .25 CBR; in data set [7] (n = 6, ± SEM), 0.87 ± .04 CBR. In addition, the “total binding as ratio to cerebellum (CBR), Inferior Parietal” value was 1.93 CBR in data set [4] (n = 11, ± SEM, p < 0.001) and 0.90 ± .08 CBR in data set [7] (n = 8, ± SEM). Further, the “total binding as ratio to cerebellum (CBR), Superior/Middle Frontal” value in data set [4] (n = 11, ± SEM, p < 0.001) is on record as 1.84 ± .18 CBR; in data set [7] (n = 8, ± SEM) it was 0.73 ± .02 CBR. For the same compound, the “total binding as ratio to cerebellum (CBR), Superior Temporal” value in data set [4] (n = 11, ± SEM, p < 0.002) is 1.63 ± .17 CBR; in data set [7] (n = 8, ± SEM), 0.86 ± .08 CBR. Also, the “total binding as ratio to cerebellum (CBR), Occipital” value in data set [4] (n = 11, ± SEM, p < 0.02) is recorded as 1.44 ± .20 CBR; in data set [7] (n = 8, ± SEM) it was 0.77 ± .13 CBR. Besides, in data set [5] (read-out: association rate constant (k1)), the kon is 37500 M⁻¹ s⁻¹. The koff in data set [5] (read-out: dissociation rate constant (k-1)) is 0.0126 s⁻¹. Moreover, the brain/kidney ratio in data set [6] is given as around 0.5.

Values taken from patent US6114175A, “Compound for the antemortem diagnosis of Alzheimer's Disease and in vivo imaging and prevention of amyloid deposition” (priority 1998, dated 2000).
